Experimental data as given in publication PMC3052287 (Psychopharmacology, 2010).

Amino acid sequences for entries named in this document (tags omitted).
UniProt P34969, whole entry: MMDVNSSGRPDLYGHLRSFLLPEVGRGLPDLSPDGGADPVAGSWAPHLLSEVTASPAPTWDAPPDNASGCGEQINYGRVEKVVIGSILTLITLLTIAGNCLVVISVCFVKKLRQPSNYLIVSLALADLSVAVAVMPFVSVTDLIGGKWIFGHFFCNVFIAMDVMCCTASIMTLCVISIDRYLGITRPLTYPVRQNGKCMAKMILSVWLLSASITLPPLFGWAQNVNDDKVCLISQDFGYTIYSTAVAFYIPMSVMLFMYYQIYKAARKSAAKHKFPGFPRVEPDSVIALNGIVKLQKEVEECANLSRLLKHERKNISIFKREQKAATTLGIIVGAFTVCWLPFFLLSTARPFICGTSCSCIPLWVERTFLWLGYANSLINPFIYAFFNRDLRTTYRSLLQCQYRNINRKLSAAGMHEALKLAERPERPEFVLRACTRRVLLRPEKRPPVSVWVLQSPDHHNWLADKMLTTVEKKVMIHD

Legend:
h5-HT7 receptor [1] = target: T1, h5-HT7 receptor (Homo sapiens, UniProt P34969); conditions: intact cells, 1 μM risperidone or buffer then wash; 2 nM [3H]5-HT; two-way ANOVA, p<0.05
h5-HT7 receptor [2] = target: T1, h5-HT7 receptor; conditions: 10 nM risperidone pre-treatment, wash, 1 μM drug 90 min, 10 μM 5-HT

| SMILES | difference in affinity between control and risperidone-treated cells (h5-HT7 receptor [1]) | reactivation of risperidone-inactivated h5-HT7 receptors (h5-HT7 receptor [2]) |
| --- | --- | --- |
| CN1CCN2c3ccccc3Cc3ccccc3C2C1 (stereo not shown) [mianserin] | significant differences | reactivation of the receptor |
| CC1CCN(CC[C@H]2CCCN2S(=O)(=O)c2cccc(O)c2)CC1 [SB269970] | significant differences | reactivation of the receptor |
